Measured values taken from patent publication US9403839B2, “Pyran-spirocyclic piperidine amides as modulators of ion channels” (Vertex Pharmaceuticals Incorporated, priority 2012, dated 2016).

Amino acid sequences for entries named in this document (tags omitted).
UniProt Q15858, whole entry: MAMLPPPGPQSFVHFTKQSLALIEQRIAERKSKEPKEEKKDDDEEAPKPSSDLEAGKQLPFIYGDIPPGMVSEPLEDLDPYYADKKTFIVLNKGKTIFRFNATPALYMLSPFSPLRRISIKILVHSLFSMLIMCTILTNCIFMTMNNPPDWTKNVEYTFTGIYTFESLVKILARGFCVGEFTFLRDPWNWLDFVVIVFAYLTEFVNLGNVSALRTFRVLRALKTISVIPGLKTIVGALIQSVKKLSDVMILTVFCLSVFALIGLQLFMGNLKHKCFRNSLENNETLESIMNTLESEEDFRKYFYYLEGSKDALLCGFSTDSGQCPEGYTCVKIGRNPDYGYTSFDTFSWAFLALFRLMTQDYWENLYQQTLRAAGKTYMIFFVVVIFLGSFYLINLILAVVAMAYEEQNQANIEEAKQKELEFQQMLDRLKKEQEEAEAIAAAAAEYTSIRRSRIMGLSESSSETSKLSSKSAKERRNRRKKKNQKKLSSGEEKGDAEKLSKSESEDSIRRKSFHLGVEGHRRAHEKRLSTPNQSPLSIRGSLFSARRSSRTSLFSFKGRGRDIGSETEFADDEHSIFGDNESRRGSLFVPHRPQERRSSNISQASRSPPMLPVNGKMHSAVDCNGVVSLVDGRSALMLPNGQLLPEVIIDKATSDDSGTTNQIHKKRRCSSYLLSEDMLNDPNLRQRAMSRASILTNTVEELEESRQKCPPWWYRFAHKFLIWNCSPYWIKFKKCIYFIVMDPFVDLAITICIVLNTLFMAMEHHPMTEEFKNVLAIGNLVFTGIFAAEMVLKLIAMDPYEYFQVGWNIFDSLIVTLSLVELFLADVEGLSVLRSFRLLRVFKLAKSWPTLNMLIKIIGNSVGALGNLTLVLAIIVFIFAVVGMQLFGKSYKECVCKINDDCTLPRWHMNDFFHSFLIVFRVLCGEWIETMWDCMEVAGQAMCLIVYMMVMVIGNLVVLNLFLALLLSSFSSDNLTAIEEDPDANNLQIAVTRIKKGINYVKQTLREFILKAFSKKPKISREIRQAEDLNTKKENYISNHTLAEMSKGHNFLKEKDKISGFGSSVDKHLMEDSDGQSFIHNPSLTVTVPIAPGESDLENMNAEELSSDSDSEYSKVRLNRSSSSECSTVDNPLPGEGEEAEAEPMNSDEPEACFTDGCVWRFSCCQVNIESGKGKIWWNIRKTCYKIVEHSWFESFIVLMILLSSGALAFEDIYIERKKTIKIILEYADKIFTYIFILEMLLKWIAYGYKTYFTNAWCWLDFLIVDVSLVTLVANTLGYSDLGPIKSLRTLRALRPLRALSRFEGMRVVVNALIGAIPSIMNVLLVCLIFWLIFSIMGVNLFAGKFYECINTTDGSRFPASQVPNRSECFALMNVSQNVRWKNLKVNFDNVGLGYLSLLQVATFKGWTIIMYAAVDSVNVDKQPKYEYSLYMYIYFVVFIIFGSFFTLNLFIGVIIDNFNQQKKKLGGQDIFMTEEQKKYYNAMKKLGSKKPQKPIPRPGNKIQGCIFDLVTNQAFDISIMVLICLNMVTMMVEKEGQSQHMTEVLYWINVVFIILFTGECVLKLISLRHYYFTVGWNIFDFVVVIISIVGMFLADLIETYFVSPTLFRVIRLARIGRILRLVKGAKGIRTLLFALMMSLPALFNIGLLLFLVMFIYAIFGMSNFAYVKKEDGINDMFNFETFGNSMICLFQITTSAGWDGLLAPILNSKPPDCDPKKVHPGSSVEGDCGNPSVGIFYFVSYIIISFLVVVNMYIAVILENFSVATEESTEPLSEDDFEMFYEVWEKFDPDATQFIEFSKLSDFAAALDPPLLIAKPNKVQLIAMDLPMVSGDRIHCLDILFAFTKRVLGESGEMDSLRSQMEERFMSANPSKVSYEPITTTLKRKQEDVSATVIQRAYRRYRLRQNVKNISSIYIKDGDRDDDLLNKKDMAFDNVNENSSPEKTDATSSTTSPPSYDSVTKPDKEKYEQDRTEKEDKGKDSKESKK

Biological target: human NaV subtype, like NaV 1.7 (Homo sapiens, UniProt Q15858)
Assay: E-VIPR optical membrane potential assay with electrical stimulation
Conditions: read-out: IC50 Binned Activity Data; one or more sodium channels; assay and NaV subtype not specified for Table 3
Source text: Assays for Detecting and Measuring NaV Inhibition Properties of Compound E-VIPR Optical Membrane Potential Assay Method with Electrical Stimulation
Sodium channels are voltage-dependent proteins that can be activated by inducing membrane voltage changes by applying electric fields. The electrical stimulation instrument and methods of use are described in Ion Channel Assay Methods PCT/US01/21652, herein incorporated by reference and are referred to as E-VIPR. The instrument comprises a microtiter plate handler, an optical system for exciting the coumarin dye while simultaneously recording the coumarin and oxonol emissions, a waveform generator, a current- or voltage-controlled amplifier, and a device for inserting electrodes in well. Under integrated computer control, this instrument passes user-programmed electrical stimulus protocols to cells within the wells of the microtiter plate.
24 hours before the assay on E-VIPR, HEK cells expressing human NaV subtype, like NaV 1.7, are seeded in 384-well poly-lysine coated plates at 15,000-20,000 cells per well. Other subtypes are performed in an analogous mode in a cell line expressing the NaV of interest. HEK cells are grown in media (exact composition is specific to each cell type and NaV subtype) supplemented with 10% FBS (Fetal Bovine Serum, qualified; GibcoBRL #16140-071) and 1% Pen-Strep (Penicillin-Streptomycin; GibcoBRL #15140-122). Cells are grown in vented cap flasks, in 90% humidity and 10% CO2, to 100% confluence. They are usually split by trypsinization 1:10 or 1:20, depending on scheduling needs, and grown for 2-3 days before the next split.
100 mg/mL Pluronic F-127 (Sigma #P2443), in dry DMSO
Compound Plates: 384-well round bottom plate, e.g. Corning 384-well Polypropylene Round Bottom #3656
Cell Plates: 384-well tissue culture treated plate, e.g. Greiner #781091-1B
Bath1 buffer. Glucose 10 mM (1.8 g/L), Magnesium Chloride (Anhydrous), 1 mM (0.095 g/L), Calcium Chloride, 2 mM (0.222 g/L), HEPES 10 mM (2.38 g/L), Potassium Chloride, 4.5 mM (0.335 g/L), Sodium Chloride 160 mM (9.35 g/L).
Hexyl Dye Solution: Bath1 Buffer+0.5% β-cyclodextrin (make this prior to use, Sigma #C4767), 8 μM CC2-DMPE+2.5 μM DiSBAC6(3). To make the solution Add volume of 10% Pluronic F127 stock equal to volumes of CC2-DMPE+DiSBAC6(3). The order of preparation is first mix Pluronic and CC2-DMPE, then add DiSBAC6(3) while vortexing, then add Bath1+β-Cyclodextrin.
1) Pre-spot compounds (in neat DMSO) into compound plates. Vehicle control (neat DMSO), the positive control (20 mM DMSO stock tetracaine, 125 μM final in assay) and test compounds are added to each well at 160× desired final concentration in neat DMSO. Final compound plate volume will be 80 μL (80-fold intermediate dilution from 1 μL DMSO spot; 160-fold final dilution after transfer to cell plate). Final DMSO concentration for all wells in assay is 0.625%.
2) Prepare Hexyl Dye Solution.
3) Prepare cell plates. On the day of the assay, medium is aspirated and cells are washed three times with 100 μL of Bath1 Solution, maintaining 25 μL residual volume in each well.
4) Dispense 25 μL per well of Hexyl Dye Solution into cell plates. Incubate for 20-35 minutes at room temp or ambient conditions.
5) Dispense 80 μL per well of Bath1 into compound plates. Acid Yellow-17 (1 mM) is added and Potassium Chloride can be altered from 4.5 to 20 mM depending on the NaV subtype and assay sensitivity.
6) Wash cell plates three times with 100 μL per well of Bath1, leaving 25 of residual volume. Then transfer 25 uL per well from Compound Plates to Cell Plates. Incubate for 20-35 minutes at room temp/ambient condition
7) Read Plate on E-VIPR. Use the current-controlled amplifier to deliver stimulation wave pulses for typically 9 seconds and a scan rate of 400 Hz. A pre-stimulus recording is performed for 0.5 seconds to obtain the un-stimulated intensities baseline. […]

Structure (SMILES) | IC50 [nM]
CCOC1CC(c2ccccc2)OC2(CCN(C(=O)c3ccc(C(C)(C)O)c(C)c3)CC2)C1 (stereo not drawn) | < 2000
CCOC1CC(c2ccccc2)OC2(CCN(C(=O)c3ccc(S(=O)(=O)NC4CC4)cc3)CC2)C1 (stereo not drawn) | < 2000
CCOC1CC(c2cccnc2)OC2(CCN(C(=O)c3ccc(CC)c(OC)c3)CC2)C1 (stereo not drawn) | > 5000
CCOC1CC(c2ccccc2)OC2(CCN(C(=O)c3ccc(OCC(C)C)c(OC)c3)CC2)C1 (stereo not drawn) | < 2000
CCOC1CC(c2ccccc2)OC2(CCN(C(=O)c3ccc(OC)nc3OC)CC2)C1 (stereo not drawn) | < 2000
CCOC1CC(c2ccccc2)OC2(CCN(C(=O)c3ccc(OC(C)C)nc3)CC2)C1 (stereo not drawn) | < 2000
CCOC1CC(c2ccccc2)OC2(CCN(C(=O)c3ccc(OCCOC)c(OC)c3)CC2)C1 (stereo not drawn) | < 2000
CCOC1CC(c2ccccc2)OC2(CCN(C(=O)c3ccc(OC)cc3C(F)(F)F)CC2)C1 (stereo not drawn) | 2000 to 5000
COCCOC1CC(c2ccccc2)OC2(CCN(C(=O)c3ccc(OC(C)C)c(OC)c3)CC2)C1 (stereo not drawn) | < 2000
CCOC1CC(c2ccccc2)OC2(CCN(C(=O)c3ccccc3OC)CC2)C1 (stereo not drawn) | < 2000
CCOC1CC(c2ccc(F)cc2)OC2(CCN(C(=O)c3ccc(CC(C)(C)O)c(F)c3)CC2)C1 (stereo not drawn) | < 2000
CCOC1CC(c2ccccc2)OC2(CCN(C(=O)c3cc(C)ccc3F)CC2)C1 (stereo not drawn) | > 5000
CCOC1CC(c2ccncc2)OC2(CCN(C(=O)c3ccc(OC(C)C)c(C)c3)CC2)C1 (stereo not drawn) | < 2000
CCOC1CC(c2ccc(F)cc2)OC2(CCN(C(=O)c3ccc(OC(C)C)c(OC)c3)CC2)C1 (stereo not drawn) | < 2000
CCOC1CC(c2ccccc2)OC2(CCN(C(=O)c3cc4ccccc4cn3)CC2)C1 (stereo not drawn) | 2000 to 5000
CCCOC1CC(c2ccnn2C)OC2(CCN(C(=O)c3ccc(OC(C)C)c(C)c3)CC2)C1 (stereo not drawn) | < 2000
CCOC1CC(c2ccccc2)OC2(CCN(C(=O)c3ccc(OCCCO)c(C)c3)CC2)C1 (stereo not drawn) | < 2000
Cc1cc(C(=O)N2CCC3(CC2)CC(OCCF)CC(c2cccnc2)O3)ccc1OC(C)C (stereo not drawn) | < 2000
CCOC1CC(c2ccccc2)OC2(CCN(C(=O)c3ccc(S(=O)(=O)C(F)(F)F)cc3)CC2)C1 (stereo not drawn) | < 2000
CCOC1CC(c2ccccc2)OC2(CCN(C(=O)c3ccc(Cl)c(F)c3)CC2)C1 (stereo not drawn) | 2000 to 5000
Cc1cc(C(=O)N2CCC3(CC2)CC(OC(C)C)CC(c2cccnc2)O3)ccc1OC(C)C (stereo not drawn) | < 2000
CCOC1CC(c2ccc(F)cc2)OC2(CCN(C(=O)c3ccc(S(=O)(=O)NC4CC4)cc3)CC2)C1 (stereo not drawn) | < 2000
CCOC1CC(c2ccccc2)OC2(CCN(C(=O)c3cccnc3NCC(C)C)CC2)C1 (stereo not drawn) | < 2000

Structure (SMILES) | IC50 [nM]
CCOC1CC(c2ccccc2)OC2(CCN(C(=O)c3ccc(OCC(C)(C)O)c(C)c3)CC2)C1 (stereo not drawn) | < 2000
CCOC1CC(c2ccccc2)OC2(CCN(C(=O)c3cn(C)c4ccccc34)CC2)C1 (stereo not drawn) | < 2000
CCOC1CC(c2ccccc2)OC2(CCN(C(=O)c3ccccc3C)CC2)C1 (stereo not drawn) | > 5000
Cc1cc(C(=O)N2CCC3(CC2)CC(OCC2CC2)CC(c2cccnc2)O3)ccc1OC(C)C (stereo not drawn) | < 2000
CCOC1CC(c2ccccc2)OC2(CCN(C(=O)c3ccc(OCCO)c(OC)c3)CC2)C1 (stereo not drawn) | > 5000
CCOc1ccc(C(=O)N2CCC3(CC2)CC(OCC)CC(c2ccc(F)cc2)O3)cc1F (stereo not drawn) | 2000 to 5000
CCOC1CC(c2ccccc2)OC2(CCN(C(=O)c3ccnc(C(C)(C)C)c3)CC2)C1 (stereo not drawn) | 2000 to 5000
CCOC1CC(c2ccccc2)OC2(CCN(C(=O)c3ccc(OC(C)C)c(F)c3)CC2)C1 (stereo not drawn) | > 5000
CCOC1CC(c2ccccc2)OC2(CCN(C(=O)c3cccnc3OCC(F)(F)F)CC2)C1 (stereo not drawn) | < 2000
CCOC1CC(c2ccccc2)OC2(CCN(C(=O)c3cc(C4CC4)nn3C(C)(C)C)CC2)C1 (stereo not drawn) | 2000 to 5000
COC1CC(c2cccnc2)OC2(CCN(C(=O)c3ccc(OC(C)C)c(C)c3)CC2)C1 (stereo not drawn) | 2000 to 5000
CCOC1CC(C2CC2)OC2(CCN(C(=O)c3ccc(OC(C)C)c(C)c3)CC2)C1 (stereo not drawn) | 2000 to 5000
CCOC1CC(c2ccccc2)OC2(CCN(C(=O)c3ccc(C4CC4)cc3)CC2)C1 (stereo not drawn) | < 2000
CCOC1CC(c2cncc(OC)c2)OC2(CCN(C(=O)c3ccc(OC(C)C)c(C)c3)CC2)C1 (stereo not drawn) | < 2000
COCCOC1CC(c2cccnc2)OC2(CCN(C(=O)c3ccc(OC(C)C)c(C)c3)CC2)C1 (stereo not drawn) | 2000 to 5000
CCOC1CC(c2ccccc2)OC2(CCN(C(=O)c3ccc(OC)cc3OC)CC2)C1 (stereo not drawn) | < 2000
CCOc1ccc(C(=O)N2CCC3(CC2)CC(OCC)CC(c2ccccc2)O3)nc1 (stereo not drawn) | < 2000
CCOC1CC(c2ccccc2)OC2(CCN(C(=O)c3ccc(S(C)(=O)=O)cc3Cl)CC2)C1 (stereo not drawn) | 2000 to 5000
CCOC1CC(c2ccccc2)OC2(CCN(C(=O)c3ccccc3COC)CC2)C1 (stereo not drawn) | 2000 to 5000
CCOC1CC(c2cncc(F)c2)OC2(CCN(C(=O)c3ccc(OC(C)C)c(C)c3)CC2)C1 (stereo not drawn) | < 2000
CCOC1CC(c2ccccc2)OC2(CCN(C(=O)c3ccc(OC)cc3F)CC2)C1 (stereo not drawn) | < 2000
CCCOC1CC(c2cncc(OC)c2)OC2(CCN(C(=O)c3ccc(OC(C)C)c(C)c3)CC2)C1 (stereo not drawn) | < 2000
CCOC1CC(c2ccccc2)OC2(CCN(C(=O)c3cn4ccc(C)cc4n3)CC2)C1 (stereo not drawn) | < 2000

Structure (SMILES) | IC50 [nM]
CCOC1CC(c2cccnc2)OC2(CCN(C(=O)c3ccc(OC(C)C)c(C)c3)CC2)C1 (single isomer, unassigned) [146] | < 2000
CCOC1CC(c2ccc(F)cc2)OC2(CCN(C(=O)c3ccc(C(C)(C)O)c(F)c3)CC2)C1 (stereo not drawn) | < 2000
CCOC1CC(c2ccccc2)OC2(CCN(C(=O)c3cc(F)ccc3OC)CC2)C1 (stereo not drawn) | 2000 to 5000
CCOC1CC(c2ccccn2)OC2(CCN(C(=O)c3ccc(OC(C)C)c(C)c3)CC2)C1 (stereo not drawn) | < 2000
CCOC1CC(c2cccc(F)c2)OC2(CCN(C(=O)c3ccc(C(C)(C)O)c(F)c3)CC2)C1 (stereo not drawn) | < 2000
CCOC1CC(c2ccccc2)OC2(CCN(C(=O)c3cc(-c4ccccc4)nn3C)CC2)C1 (stereo not drawn) | 2000 to 5000
CCOC1CC(c2ccccn2)OC2(CCN(C(=O)c3ccc(OC(C)C)c(OC)c3)CC2)C1 (stereo not drawn) | > 5000
CCOC1CC(c2ccccc2)OC2(CCN(C(=O)c3cccc4c3OCCC4)CC2)C1 (stereo not drawn) | < 2000
CCOC1CC(c2ccccc2)OC2(CCN(C(=O)c3ccccc3OC(F)F)CC2)C1 (stereo not drawn) | < 2000
CCOC1CC(c2ccccc2)OC2(CCN(C(=O)c3ccc(S(=O)(=O)CC)cc3)CC2)C1 (stereo not drawn) | < 2000
CCOC1CC(c2ccccc2)OC2(CCN(C(=O)c3ccc(C4(O)CCCC4)cc3)CC2)C1 (stereo not drawn) | < 2000
CCOC1CC(c2ccccc2)OC2(CCN(C(=O)c3cc(OC)ccc3F)CC2)C1 (stereo not drawn) | > 5000
CCOC1CC(c2ccccc2)OC2(CCN(C(=O)c3ccc(OC(F)F)cc3)CC2)C1 (stereo not drawn) | < 2000
CCOC1CC(c2ccccc2)OC2(CCN(C(=O)c3ccccc3C(F)F)CC2)C1 (stereo not drawn) | > 5000
CCOC1CC(c2cnc(C)s2)OC2(CCN(C(=O)c3ccc(OC(C)C)c(C)c3)CC2)C1 (stereo not drawn) | < 2000
CCOC1CC(c2ccccc2)OC2(CCN(C(=O)c3ccc(C(C)(C)O)c(F)c3)CC2)C1 (stereo not drawn) | < 2000
CCOC1CC(c2ccccc2)OC2(CCN(C(=O)c3cnn(-c4ccccc4)c3C)CC2)C1 (stereo not drawn) | < 2000
CCOC1CC(c2ccccc2)OC2(CCN(C(=O)c3ccc(F)cc3Cl)CC2)C1 (stereo not drawn) | 2000 to 5000
CCOC1CC(c2cccnc2)OC2(CCN(C(=O)c3ccc(S(=O)(=O)C(F)F)cc3)CC2)C1 (stereo not drawn) | > 5000
CCOC1CC(c2ccccc2)OC2(CCN(C(=O)c3cccc(OC)n3)CC2)C1 (stereo not drawn) | 2000 to 5000
CCOC1CC(c2scnc2C)OC2(CCN(C(=O)c3ccc(OC(C)C)c(C)c3)CC2)C1 (stereo not drawn) | < 2000
CCOC1CC(c2ccccc2)OC2(CCN(C(=O)c3cc(OC)c(C)c(OC)c3)CC2)C1 (stereo not drawn) | > 5000
CCOC1CC(c2ccccc2)OC2(CCN(C(=O)c3ccc(C(F)(F)F)cc3OC)CC2)C1 (stereo not drawn) | < 2000
